Laboratory results taken from ChEMBL document CHEMBL5230104, “Systemic review on B-RafV600E mutation as potential therapeutic target for the treatment of cancer” (Eur J Med Chem, 2020).

Protein sequences, listed by entry. Tags and fused reporters are not part of them. Residues count along the entry.
UniProt P15056, 2-766 V600E limits assumed: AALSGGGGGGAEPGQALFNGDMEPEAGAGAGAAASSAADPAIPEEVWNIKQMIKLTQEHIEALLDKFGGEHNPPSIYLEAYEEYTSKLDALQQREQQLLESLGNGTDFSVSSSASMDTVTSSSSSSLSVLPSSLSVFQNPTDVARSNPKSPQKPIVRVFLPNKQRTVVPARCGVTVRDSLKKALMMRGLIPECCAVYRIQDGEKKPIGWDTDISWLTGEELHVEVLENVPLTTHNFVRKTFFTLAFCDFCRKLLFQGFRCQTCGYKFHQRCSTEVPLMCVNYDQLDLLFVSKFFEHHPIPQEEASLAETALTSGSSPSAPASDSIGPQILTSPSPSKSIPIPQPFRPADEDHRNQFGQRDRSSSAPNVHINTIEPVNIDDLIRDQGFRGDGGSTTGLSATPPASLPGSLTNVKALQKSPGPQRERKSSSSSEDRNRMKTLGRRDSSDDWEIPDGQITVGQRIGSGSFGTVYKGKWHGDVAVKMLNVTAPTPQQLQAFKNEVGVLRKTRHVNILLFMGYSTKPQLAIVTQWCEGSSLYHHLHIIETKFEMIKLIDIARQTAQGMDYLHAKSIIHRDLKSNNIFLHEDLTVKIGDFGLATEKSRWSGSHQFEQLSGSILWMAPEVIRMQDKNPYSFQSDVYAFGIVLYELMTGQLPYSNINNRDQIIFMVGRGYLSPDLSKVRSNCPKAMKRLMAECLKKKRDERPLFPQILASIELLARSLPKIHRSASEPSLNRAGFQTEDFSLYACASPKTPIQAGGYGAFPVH
UniProt P15056, 2-766 limits assumed: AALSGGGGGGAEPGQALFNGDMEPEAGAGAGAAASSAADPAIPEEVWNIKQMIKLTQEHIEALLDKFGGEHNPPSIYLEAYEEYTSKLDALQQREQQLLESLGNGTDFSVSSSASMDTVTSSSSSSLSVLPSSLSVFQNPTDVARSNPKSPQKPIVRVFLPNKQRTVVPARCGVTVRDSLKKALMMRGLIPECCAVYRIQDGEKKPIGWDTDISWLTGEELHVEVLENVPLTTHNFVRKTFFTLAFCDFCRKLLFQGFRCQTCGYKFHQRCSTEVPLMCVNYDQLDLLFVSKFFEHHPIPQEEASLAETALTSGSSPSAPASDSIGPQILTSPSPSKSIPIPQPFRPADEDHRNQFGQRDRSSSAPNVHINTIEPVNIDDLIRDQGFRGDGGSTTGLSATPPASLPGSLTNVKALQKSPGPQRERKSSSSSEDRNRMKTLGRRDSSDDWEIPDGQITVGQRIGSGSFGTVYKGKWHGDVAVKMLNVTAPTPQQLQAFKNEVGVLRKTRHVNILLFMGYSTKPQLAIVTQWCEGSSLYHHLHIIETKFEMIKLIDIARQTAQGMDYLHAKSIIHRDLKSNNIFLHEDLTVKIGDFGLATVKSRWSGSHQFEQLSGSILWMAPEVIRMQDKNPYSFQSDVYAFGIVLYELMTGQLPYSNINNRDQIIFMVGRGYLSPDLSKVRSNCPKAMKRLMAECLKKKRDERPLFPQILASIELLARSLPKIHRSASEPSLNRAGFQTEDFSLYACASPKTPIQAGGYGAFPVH

Key:
[1] = molecular target: Serine/threonine-protein kinase B-raf (Homo sapiens, UniProt P15056, V600E); test: Inhibition of B-Raf V600E mutant (unknown origin) incubated for 120 mins in presence of ATP by ADP-Glo luminescence assay
[2] = molecular target: Serine/threonine-protein kinase B-raf (Homo sapiens, UniProt P15056); test: Inhibition of wild type B-Raf (unknown origin) incubated for 120 mins in presence of ATP by ADP-Glo luminescence assay

CC(=O)Nc1cc(-c2sc(C3CCN(C4CC4)CC3)nc2-c2cccc(NS(=O)(=O)c3cc(F)ccc3F)c2F)ccn1
IC50 [1]: 3.7 nM
IC50 [2]: 4.8 nM
